Structures can show the parent of a compound that is named as a salt.
Tests used:
[1] = cited from earlier work
GIRK1/4 channels = target: T1, GIRK1/4 channels (Mus musculus, UniProt P48545+P63250); assay: Inhibition of basal GIRK currents, Xenopus oocyte expression assay, two-electrode voltage clamp; assay type: cell-based; details: for n H (Hill coefficient): basal GIRK currents; for IC25: concentration reducing basal GIRK currents by 25%
T1 construct: expressed in transfected cells; host or cells: Xenopus laevis oocytes injected with in vitro transcribed mRNA
T1 sequence (P63250 1-501): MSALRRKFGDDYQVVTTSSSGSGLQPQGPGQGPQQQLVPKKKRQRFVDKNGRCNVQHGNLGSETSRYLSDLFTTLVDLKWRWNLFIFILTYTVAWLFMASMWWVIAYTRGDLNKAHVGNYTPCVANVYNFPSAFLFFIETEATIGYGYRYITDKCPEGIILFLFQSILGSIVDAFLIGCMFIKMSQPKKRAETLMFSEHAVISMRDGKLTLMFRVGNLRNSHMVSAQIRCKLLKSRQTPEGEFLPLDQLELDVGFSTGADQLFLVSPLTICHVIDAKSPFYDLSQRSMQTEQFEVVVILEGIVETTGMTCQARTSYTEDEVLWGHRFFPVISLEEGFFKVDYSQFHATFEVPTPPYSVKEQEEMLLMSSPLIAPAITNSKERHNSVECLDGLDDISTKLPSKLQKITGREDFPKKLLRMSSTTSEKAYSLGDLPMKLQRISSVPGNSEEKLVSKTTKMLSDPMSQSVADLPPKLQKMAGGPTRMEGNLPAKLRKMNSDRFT
T1 sequence (P48545 1-419): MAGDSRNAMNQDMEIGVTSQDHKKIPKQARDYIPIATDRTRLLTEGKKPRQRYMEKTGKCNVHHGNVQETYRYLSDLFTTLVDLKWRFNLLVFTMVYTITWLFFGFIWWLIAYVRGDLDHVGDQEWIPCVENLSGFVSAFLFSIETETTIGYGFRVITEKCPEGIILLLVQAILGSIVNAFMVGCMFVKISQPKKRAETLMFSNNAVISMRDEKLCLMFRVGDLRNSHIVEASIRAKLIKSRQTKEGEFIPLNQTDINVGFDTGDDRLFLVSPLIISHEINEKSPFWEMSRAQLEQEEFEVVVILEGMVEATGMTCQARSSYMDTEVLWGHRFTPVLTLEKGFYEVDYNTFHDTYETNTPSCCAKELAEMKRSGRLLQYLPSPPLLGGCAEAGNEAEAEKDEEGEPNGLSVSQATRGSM
Experimental: (§1) Microelectrodes were filled with 3 M KCl. […]. The data are expressed as mean ± SEM, and n is the number of oocytes tested. The statistical analysis of differences between groups was performed using paired t-test, one-way analysis of variance (ANOVA), or two-way ANOVA followed by the Tukey-Kramer post hoc test. Values of P<0.05 were considered statistically significant.

GIRK1/2 channels = target: T2, GIRK1/2 channels (Mus musculus, UniProt P48542+P63250); assay: as above; assay type: cell-based; details: for n H (Hill coefficient): basal GIRK currents; for IC25: concentration reducing basal GIRK currents by 25%
T2 construct: expressed in transfected cells; host or cells: Xenopus laevis oocytes injected with in vitro transcribed mRNA
T2 sequence (P63250 1-501): T1 sequence (P63250 1-501)
T2 sequence (P48542 1-425): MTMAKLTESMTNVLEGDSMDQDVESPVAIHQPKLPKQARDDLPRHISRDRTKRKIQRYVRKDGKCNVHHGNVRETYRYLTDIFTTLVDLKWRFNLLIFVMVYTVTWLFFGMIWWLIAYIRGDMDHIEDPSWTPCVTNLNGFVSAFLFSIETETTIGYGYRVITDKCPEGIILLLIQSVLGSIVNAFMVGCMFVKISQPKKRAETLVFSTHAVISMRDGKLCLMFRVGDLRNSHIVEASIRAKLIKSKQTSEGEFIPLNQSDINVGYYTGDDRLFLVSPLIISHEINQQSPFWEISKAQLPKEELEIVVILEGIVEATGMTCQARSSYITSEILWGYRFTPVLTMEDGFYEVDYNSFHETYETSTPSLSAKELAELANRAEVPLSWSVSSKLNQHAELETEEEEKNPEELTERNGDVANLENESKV
Experimental: as §1

[2] = target: GIRK1/2 channels activated by ethanol (Mus musculus, UniProt P48542+P63250)
[3] = target: T3, GIRK1/2 channels activated by GTPγS (Mus musculus, UniProt P48542+P63250); assay: Inhibition of total GIRK currents (GTPγS-induced and basal) in GTPγS-injected oocytes; assay type: cell-based
T3 construct: expressed in transfected cells; host or cells: Xenopus laevis oocytes injected with in vitro transcribed mRNA
T3 sequence (P63250 1-501): T1 sequence (P63250 1-501)
T3 sequence (P48542 1-425): T2 sequence (P48542 1-425)
Source text: Microelectrodes were filled with 3 M KCl. […] GIRK channels are activated by various Gi/o-protein-coupled receptors through the direct action of G-protein βγ subunits released from the heterotrimeric G-protein complex, [33].

[4] = 1000 µM, read-out: % max (percentage inhibition of basal GIRK currents at the highest concentration tested)
[5] = read-out: % max (percentage inhibition of basal GIRK currents at the highest concentration tested)

Clc1ccc2c(c1)C(N1CCNCC1)=Nc1ccccc1O2 [amoxapine, Amoxapine]
concentrations in cases of overdose [1]: ≤ 57.4 µM | inhibition at 100 µM (GIRK1/4 channels; 100 µM, −70 mV, hK solution): 27.6 ± 4% | inhibition at 1000 µM (GIRK1/4 channels; [4]): 36 ± 1.6% | n H (Hill coefficient) (GIRK1/4 channels): 0.87±0.07 | IC25 (GIRK1/4 channels): 39.7 ± 15.8 µM | inhibition at 100 µM (GIRK1/2 channels; 100 µM, −70 mV, hK solution): 45.6 ± 4.4% | inhibition at 1000 µM (GIRK1/2 channels; [4]): 58.9 ± 2.9% | n H (Hill coefficient) (GIRK1/2 channels): 0.87±0.03 | IC25 (GIRK1/2 channels): 21.5 ± 8.3 µM

CN[C@H]1CC[C@@H](c2ccc(Cl)c(Cl)c2)c2ccccc21 [sertraline, Sertraline hydrochloride]
concentrations in cases of overdose [1]: up to 13.7 µM | n H (Hill coefficient) (GIRK1/4 channels): 0.89±0.09 | IC25 (GIRK1/4 channels): 7.0 ± 1.0 µM | inhibition at 30 µM (GIRK1/4 channels; read-out: % inhibition of 3 mM Ba2+-sensitive current components): 51.6 ± 4.3% | inhibition at 300 µM (GIRK1/4 channels; [5]): 63.7 ± 3.5% | effect on outward GIRK currents (GIRK1/2 channels; 30 µM, K4 solution 4 mM K+, holding potential −10 mV): reversibly reduced | voltage dependence of GIRK current inhibition at the end of the voltage pulses (GIRK1/2 channels; 30 µM, −120 to −40 mV): voltage-independent | current response in K+-free ND98 solution (GIRK1/2 channels; 100 µM, ND98 solution 98 mM Na+): 3.0±1.8 nA | % inhibition of the Ba2+-sensitive current components during application of 3 mM Ba2+ (GIRK1/2 channels; additional 100 µM during 3 mM Ba2+): less than 1% | reduction of inward currents during application of 3 mM Ba2+ (GIRK1/2 channels; additional 100 µM during 3 mM Ba2+, hK solution): 4.5±3.5 nA | n H (Hill coefficient) (GIRK1/2 channels): 1.02±0.05 | IC25 (GIRK1/2 channels): 6.9 ± 0.6 µM | effect of extracellular pH on percentage inhibition of GIRK channels (GIRK1/2 channels; extracellular pH 7.4 and 9.0): not significantly affected | basal currents, % of untreated control current (GIRK1/2 channels; intracellularly applied, approximately 225 µM, oocytes that expressed GIRK channels): 92.5±1.6% | inhibition at 500 µM (GIRK1/2 channels; [5]): 73.7 ± 2.9% | n H ([2]; GIRK currents induced by 100 mM ethanol): 0.87±0.17 | IC25 ([2]; GIRK currents induced by 100 mM ethanol, extracellular application): 6.2 ± 1.4 µM | ethanol-induced GIRK currents, % of untreated control current ([2]; intracellularly applied, approximately 225 µM, 100 mM ethanol): 104.9±9.1% | IC25 [3]: 5.5 ± 0.7 µM | n H [3]: 1.24±0.09

— PMC3229538, “Inhibition of G Protein-Activated Inwardly Rectifying K^+ Channels by Different Classes of Antidepressants” (PLoS ONE, 2011)
